## Binding of CDR-mutated scFvs to a peptide of the spike HR2 region

From the AlphaSeq antibody data of Li et al. 2023 (doi:10.1038/s41467-023-39022-2), copy in the FLAb collection.

Target: peptide PDVDLGDISGINAS, taken from heptad repeat 2 (HR2) of SARS-CoV-2 spike.

The variants keep the heavy chain, the linker and the frameworks of Ab-14 (scFv order VH, the linker GGGGSGGGGSGGGGS, VL).
VH: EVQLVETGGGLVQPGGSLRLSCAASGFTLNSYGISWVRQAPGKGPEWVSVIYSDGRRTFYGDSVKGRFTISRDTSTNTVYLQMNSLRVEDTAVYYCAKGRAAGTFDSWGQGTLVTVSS
VL: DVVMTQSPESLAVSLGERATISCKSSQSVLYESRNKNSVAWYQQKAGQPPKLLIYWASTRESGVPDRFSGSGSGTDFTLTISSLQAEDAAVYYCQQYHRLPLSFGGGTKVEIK

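Phage display of a naive human antibody library on the peptide gave the parent. The variants were designed computationally from a first round of random CDR variants and then made and measured. Group labels follow the data file (Ctrl: baseline library sampled from a position-specific scoring matrix, with some repeated check sequences; Rand: our label for a block that the file lists under HC and that is probably the random mutants of the ten best first-round binders; En: ensemble of fine-tuned language models; GP: Gaussian process model; GPLM: also part of the Gaussian process libraries; HC: hill climbing; Gen: genetic algorithm; Gibbs: Gibbs sampling; a sequence that several methods proposed may carry one label only). Affinity was read by AlphaSeq, a pooled yeast mating assay with surface-displayed partners. Pairs that bind mate more often; barcode pairs of the diploids are counted by sequencing. Each replicate has its own calibration line, from reference interactions of the BCL2 family. Each pool was mated in six replicate cultures.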

Variants are written as CDR1, CDR2 and CDR3 of the light chain (limits as in the source). Parent: KSSQSVLYESRNKNSVA, WASTRES, QQYHRLPLS.
The Kd shown is the geometric mean over detected replicates; a lower Kd is a better binder.
An entry "not detected" has no value in the source: the pair was not observed among the diploids in any replicate. This suggests poor binding but is not conclusive.
In the paper, a design with two or fewer of six values counts as a poor binder.

Kd	replicates with signal	signal with controls	CDR-L1	CDR-L2	CDR-L3	group
5.7 nM	6 of 6	1 of 18	NFSQMVLTGSTLKNSVA	HAQTREE	QQYHRLPLI	En_HC
4.8 nM	6 of 6	0 of 18	QIFFNDFWYGIESQNIA	QGSMREV	QQYARLPLV	En_Gibbs
81 nM	1 of 6	0 of 18	KWLQSVLLESRNSNSVA	NASTREL	QQYHRLPLS	GP_Gibbs
5.2 nM	6 of 6	0 of 18	KLGEATRFESSNKASIA	DNSTRES	QQYHRLPLS	En_HC
5.2 nM	6 of 6	0 of 18	KASQSVLYESRVKNSVA	EASMRES	QQYHRLPLS	GP_Gibbs
700 pM	6 of 6	1 of 18	KVSISMPYEERNKNSVA	NASQRMS	QQYHRLPLS	GP_Gibbs
not detected	0 of 6	0 of 18	KSSQSVLYESRNKNSVA	WASTRES	QQKHRLPLS	Ctrl
2.9 nM	6 of 6	0 of 18	KVSQSVLYESGTKNSVA	NASLREC	QQYHRLPLS	GP_HC
20 nM	3 of 6	0 of 18	KSSQSVPFESRNKNSVA	WASTRVS	QQYHRLPLS	Ctrl
1.3 nM	6 of 6	0 of 18	KMSQLNLYEQRNFNSVA	NASYRES	QQYHRLPLS	GP_Gibbs
5.4 nM	6 of 6	0 of 18	KMSQEVDLESRNVNSVA	MASCRED	QQYHRLPLS	GP_Gibbs
30 nM	6 of 6	1 of 18	SLEMFTGMLNAYKSSIA	NATYLVQ	QQYYRLPIS	En_Gibbs
20 µM	1 of 6	2 of 18	KLVGDMQSDKNPSENIA	EMSSVEQ	QQYARLPLD	En_Gibbs
130 nM	2 of 6	1 of 18	KSSQSVLYESRNKNSVA	WESTRES	QQYHRLPLS	Ctrl
24 nM	5 of 6	0 of 18	MLSALVKMGSRNTNSVA	DNSTRGS	QQYDRLPLS	En_HC
3.3 nM	6 of 6	0 of 18	KVSQSVLYESGTKNSVA	NASLRES	QQYHRLPLS	GP_HC
67 nM	6 of 6	0 of 18	KIGLVTNGISFSKNSVA	EQSTREE	QQYDRLPLS	En_HC
1.5 nM	6 of 6	0 of 18	KVSISYLLESRNKNSVA	EAETRES	QQYHRLPLS	GP_HC
410 pM	6 of 6	0 of 18	KLRQQTLYESRNKNSVA	DASTREE	QQYHRLPLS	GP_HC
18 nM	6 of 6	0 of 18	KLQQSQLYESRNTNSVA	QASQREV	QQYHRLPLS	GP_Gibbs
1.1 nM	6 of 6	2 of 18	KLDQSVLYESRNKNSVA	NASTRCS	QQYHRLPLS	GP_Gen
1.1 nM	6 of 6	2 of 18	KLKQSVLYESRNKNSVA	HASTRED	QQYHRLPLS	GP_HC
6.2 nM	6 of 6	0 of 18	KITATMRFEQKASNNIA	EVTQRSK	QQYYRLPLS	En_Gen
290 nM	4 of 6	2 of 18	NLNDSDMYAQIMTDNIA	QETQRNE	QQYAKLPLS	En_Gibbs
1.9 nM	6 of 6	0 of 18	TLTQVQGMESHNKNSVA	DLSLRGS	QQYHRLPLS	En_HC
450 nM	1 of 6	1 of 18	KLSQSVNMTGKNKNSVA	ELSFRES	QQYERLPLS	En_HC
1.2 nM	6 of 6	2 of 18	KLQQDVLYESRNKNSVA	QASTRMS	QAYHRLPLS	GP_Gibbs
3.2 nM	6 of 6	4 of 18	KSSISWLYEDRVKNSVA	GASTRES	QQYHRLPLS	GP_HC
4.6 nM	6 of 6	0 of 18	KFMQSWLYWSRNKNSVA	NASQREH	QQYHRLPLS	GP_Gibbs
37 nM	6 of 6	0 of 18	KGSPSDLAESRNKNSVA	WASTRES	QQYHRLPLS	Ctrl
210 nM	2 of 6	1 of 18	KSSQSVLYESRNKNSVA	WASTRHS	NQYHRLNLM	Ctrl
4.0 nM	6 of 6	0 of 18	KSDQSVLYLSRNKNSVA	NASTRED	QQYHRLPLS	Rand
560 pM	6 of 6	4 of 18	KLSQSVLYESRNKNSVA	GASTREM	QQYHRLPLS	GP_Gen
51 nM	6 of 6	1 of 18	SLTSHEEEKEGAEASVA	EAVMLES	QQYHQLPLM	En_Gibbs
1.2 nM	6 of 6	0 of 18	KFSQSEDYESRNKWSVA	NASTRMS	QQYHRLPLS	GP_Gibbs
320 nM	4 of 6	0 of 18	KMSISVLPESRNKNSVA	QAMTRES	QLYHRLPLS	Ctrl
1.6 nM	6 of 6	1 of 18	KLQQSQLYESRNKNSVA	SASTRES	QQYHRLPLS	GP_Gen
2.6 nM	6 of 6	1 of 18	KYQESEPYESRNKNSVA	NASTRET	QQYHRLPLS	GP_Gibbs
6.5 nM	6 of 6	1 of 18	SIQNLGMVPSVWKNSIA	DVTIVED	QQYYRLPLL	En_Gibbs
1.7 nM	6 of 6	1 of 18	KSSPSQEYEDRNFNSVA	HASTREE	QQYHRLPLS	GP_Gibbs
870 pM	6 of 6	0 of 18	KLQQSFLYESRNKNSVA	NASTRLS	QQYHRLPLS	GP_Gen
1.0 nM	6 of 6	0 of 18	KFMQSVPYESRNLNNVA	HGSTRES	QQYHRLPLS	GP_Gibbs
1.5 nM	6 of 6	1 of 18	TLGGAMHTQMNMKNSVA	DLTTRGN	QQYHRLPLS	En_Gen
440 pM	6 of 6	0 of 18	KLSQSQLYESRNKNSVA	NASTREE	QQYHRLPLS	GP_Gen
2.1 nM	6 of 6	2 of 18	KSSLSVMYESRDKNSVA	NATTRES	QQYHRLPLS	Ctrl
680 pM	6 of 6	5 of 18	KFSQSYLYESRNKNSVA	EASTRES	QQYHRLPLS	GPLM_HC

Background: pairings of all light chain designs with three empty control strains gave a value in 4% of cases (median 430 nM, 5th percentile 38 nM). Values in that range, when seen in few replicates, are hard to tell from nonspecific mating. Also given: how often the same scFv was detected with the empty control strains.
The parent sequence was in this pool as ten entries: three were never detected, three once, and four in most replicates, with averages from 2.2 nM to 240 nM.
Values of this round are not directly comparable with the first-round values of the same sequences.